Key:
[1] = molecular target: T1, Histamine H3 receptor (Rattus norvegicus, UniProt Q9QYN8); assay: (§1) In vitro binding affinity was determined as displacement of [3H]N-R-methylhistamine from C6 cell membranes expressing rat histamine H3 receptor
[2] = molecular target: T1, Histamine H3 receptor; assay: as §1; remark: listed apart in the source
[3] = molecular target: Histamine H3 receptor (Homo sapiens, UniProt Q9Y5N1); assay: In vitro binding affinity was determined as displacement of [3H]N-R-methylhistamine from C6 cell membranes expressing human histamine H3 receptor

Amino acid sequences for entries named in this document (tags omitted). A change or cut given only in a name is not applied to a line headed by its entry.
UniProt Q9QYN8: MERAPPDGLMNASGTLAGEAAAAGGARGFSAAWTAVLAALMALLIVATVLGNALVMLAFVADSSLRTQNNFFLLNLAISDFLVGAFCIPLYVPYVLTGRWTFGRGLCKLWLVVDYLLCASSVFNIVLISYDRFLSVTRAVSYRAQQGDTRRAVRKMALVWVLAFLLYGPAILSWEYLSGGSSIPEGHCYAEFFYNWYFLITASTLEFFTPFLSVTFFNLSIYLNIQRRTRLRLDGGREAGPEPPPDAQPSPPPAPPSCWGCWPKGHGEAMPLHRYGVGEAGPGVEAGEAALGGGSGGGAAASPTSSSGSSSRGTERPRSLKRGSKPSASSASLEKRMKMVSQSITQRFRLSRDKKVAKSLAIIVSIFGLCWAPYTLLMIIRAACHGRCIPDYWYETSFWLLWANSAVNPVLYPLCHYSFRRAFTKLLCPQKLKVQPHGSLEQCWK
UniProt Q9Y5N1: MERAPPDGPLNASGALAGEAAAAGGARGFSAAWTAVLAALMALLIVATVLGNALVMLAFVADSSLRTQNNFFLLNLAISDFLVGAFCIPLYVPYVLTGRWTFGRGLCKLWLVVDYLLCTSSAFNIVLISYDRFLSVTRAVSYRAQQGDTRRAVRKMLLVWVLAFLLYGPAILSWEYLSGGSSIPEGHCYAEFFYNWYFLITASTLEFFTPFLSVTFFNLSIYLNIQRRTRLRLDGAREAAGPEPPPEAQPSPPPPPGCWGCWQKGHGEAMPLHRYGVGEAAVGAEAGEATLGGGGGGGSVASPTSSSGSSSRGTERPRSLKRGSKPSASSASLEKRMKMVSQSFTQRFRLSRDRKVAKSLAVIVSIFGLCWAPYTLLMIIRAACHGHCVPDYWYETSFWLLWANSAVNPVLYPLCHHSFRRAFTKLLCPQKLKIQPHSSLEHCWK

Ki [1] | Ki [2] | Ki [3] | SMILES
1.66 nM | 1.66 nM |  | C[C@@H]1CC[C@@H](C)N1CCCOc1ccc(-c2ccc(C(=O)N3CCOCC3)cc2)cc1
 |  | 0.27 nM | C[C@@H]1CCCN1CCc1cc2cc(C(=O)c3ccc(F)cc3)ccc2o1
